For assay [1], the target named is T1, type I interleukin-1 receptor (UniProt P14778 18-336, fluorescently labeled (in the MST assay only)).
T1 construct: type I interleukin-1 receptor (IL-1R1); Probably a soluble His-tagged extracellular domain of human IL-1R1 (surmised); The details are said to be in the Supplementary Methods; also called IL-1R1; IL-1R
T1 sequence (looked up): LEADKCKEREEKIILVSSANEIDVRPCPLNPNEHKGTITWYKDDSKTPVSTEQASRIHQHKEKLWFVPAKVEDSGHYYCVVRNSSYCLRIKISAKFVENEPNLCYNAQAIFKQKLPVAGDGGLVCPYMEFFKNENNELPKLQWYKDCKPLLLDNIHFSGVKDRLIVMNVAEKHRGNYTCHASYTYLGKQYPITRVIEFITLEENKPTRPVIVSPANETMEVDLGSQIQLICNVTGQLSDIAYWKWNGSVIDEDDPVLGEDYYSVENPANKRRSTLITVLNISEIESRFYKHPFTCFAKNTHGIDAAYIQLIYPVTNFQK
The experiment in a line: MST; fluorescently labeled IL-1R1 titrated with serially diluted IL-1Ra variants and IL-1β; Monolith NT.115-pico. The settings on record: both partners purified.

Assay [2] has as its target T1, type I interleukin-1 receptor. The experiment in a line: SPR; IL-1R1 captured on a CM5 chip via a His Capture Kit; various concentrations of IL-1Ra variants and IL-1β flowed as analytes; Biacore T200. Particulars: both partners purified. For orientation: SPR reads the build-up and loss of mass on a sensor chip optically.

B1: wild-type recombinant human interleukin-1 receptor antagonist (iPT hIL-1Ra WT) (natural protein)
chain: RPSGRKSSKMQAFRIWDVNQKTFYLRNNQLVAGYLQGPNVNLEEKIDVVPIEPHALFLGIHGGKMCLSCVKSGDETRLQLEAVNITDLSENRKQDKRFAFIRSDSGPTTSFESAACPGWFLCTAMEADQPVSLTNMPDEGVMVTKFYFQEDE
notes: interleukin-1 receptor antagonist (IL-1Ra), human, recombinant form (rhIL-1Ra); It was cloned in pET21a between NdeI and XhoI, and no tag is named; also called WT IL-1Ra; rhIL-1Ra; source: E. coli BL21(DE3) RIL, purified (HiTrap Q ion exchange, Superdex 75 SEC)
As to B1, the Kd – broadly, the concentration at which binding is half-saturated – in assay [1] was determined as 3.79 nM; in assay [2] it was 0.264 nM.
